Laboratory results taken from US20020156248A1.

Biological target: TAG-72 antigen on LS174-T cells
Test: cell-based or functional assay

CC49/218 sFv with an engineered oligo-lysine C-terminal tail segment (sixteen lysine residues), clone EN266(7) (scFv)
transfection of LS 174-T cells by reporter plasmid pSEAP2 (secreted alkaline phosphatase chemiluminescence, X-ray film densitometry): 8 fold
